Reference: article PMC10352329

Columns and labels:
[1] = target: H2B (1–27) unmodified peptide (Homo sapiens); experiment: ITC; details: domain or fragment
[2] = target: H4 (1–20) unmodified peptide (Homo sapiens); experiment: ITC; details: domain or fragment

Substance: N-terminal bromodomain of human BRD4 (residues 44–168) (from UniProt O60885 44-168)
- Kd [1]: > 500 µM
- Kd [2]: > 500 µM
